{"source": "ChEMBL document CHEMBL2346663", "about": "(J Med Chem, 2013)", "species": "Homo sapiens", "experiment": "Selectivity ratio of Ki for human SERT to IC50 for human recombinant MPO-mediated LDL oxidation", "in_short": "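Ratio of two measured values. Recombinant human MPO (1 µg/mL) oxidised LDL (1000 µg/mL) in PBS pH 7.2 with 4 mM HCl and 100 µM H2O2 at 37 °C for 5 min. Oxidised LDL was detected by ELISA with Mab AG9 at 405 nm to give the IC50. hSERT was transiently expressed in HEK-293 MSR cells and assayed by [3H]5-HT uptake.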", "data": [{"smiles": "ONCCCc1c[nH]c2ccc(F)cc12", "values": [{"measurement": "Ratio", "result": 1.8}]}]}
